Legend:
[1] = test system: human EDG-4 fusion protein with Jellyfish Green Fluorescent Protein (GFP); details: 3 clones of EDG-4/GFP; 1 or 5 μM S1P
human EDG-3 = assay: NF-κB luciferase reporter in 293-EBNA cells, EDG-3; type: cell-based; details: EDG-3 clone pC3-E3HP2; 3 μM; 6 hours
Description: 2) 3 μg NFκB-tk-p4Luc reporter DNA and 3 μg pC3-hedg1, pC3-hedg3, pC3-redg4, pC3-hedg5 or pcDNA3 DNA was diluted in 240 μl OPTI-MEM (Gibco; Cat. 31985-062)
Transient Transfection Protocol for 293-EBNA (Assay 3):
The protocol described in Example 11 for Assay 1 was followed except for the following changes:
2) SRE Cotransfection: 0.5 μg of 2XSREtk-p4Luc-zeo reporter DNA and 3.5 μg pcDNA3, EDG-1, EDG-3 (pC3-hE3HP2, different from the clone used in Assay 2 of Example 11) or the newly cloned human EDG-4 (pC3-hedg4#36); NF-κB Cotransfection: 2 μg 6XNFκBtk-p4Luc-zeo reporter DNA and 2.0 μg pcDNA3, EDG-1, EDG-3 (pC3-hE3HP2), or EDG-4 (pC3-hedg4#36). Expression plasmid and reporter plasmid DNA samples were combined and diluted in 750 μl of DMEM/F12 (serum free media) and 20 μl Plus Reagent (Lipofectamine Plus Kit, Life Technologies Cat. 10964-013), and incubated at room temperature for 15 min.
3) 30 μl Lipofectamine Reagent (Lipofectamine Plus Kit) was diluted in 750 μl DMEM/F12. The diluted Lipofectamine was then combined with the DNA/Plus mixture and incubated at room temperature for 15 min.
6) The transfection medium was replaced with serum-free DMEM/F12 for cells transfected with 2XSREtk-p4Luc-zeo reporter DNA and with DMEM/F12 plus 10% FBS for cells tansfected with 6XNFκBtk-p4Luc-zeo reporter DNA. […]

Question: Which results are given for `CCCCCCCCCCCCC/C=C/[C@@H](O)[C@@H](N)COP(=O)(O)O` [S1P, sphingosine-1-phosphate]?
Answer: SRE response of EDG-4/GFP clones compared with EDG-4 parent [1]: did not differ significantly from the EDG-4 parent; Induction of the NF-κB reporter gene compared to untreated controls (human EDG-3): about 8 fold

Source: patent US6482609B1, “Isolated human EDG-4 receptor and polynucletide encoding said receptor” (priority 1997, dated 2002)
